# Reference: patent US20210346495A1, “METHODS AND COMPOSITIONS COMPRISING AN NFKB INHIBITOR AND AN ADJUVANT” (priority 2018, published 2021)
# Test system: systemic TNF-a and IL-6
# Test: Systemic cytokines after vaccination with NF-kB inhibitor, CpG and ovalbumin (Example 2)
# Format: in vivo, mouse
# Conditions: one hour post-vaccination
structure (smiles),measurement,value
"COc1cc(O)c2c(c1)/C=C/C[C@H](O)[C@H](O)C(=O)/C=C\C[C@H](C)OC2=O [5-z-o, 5Z-7-Oxozeaenol]",systemic IL-6,about a two-fold decrease in IL-6 levels
same,systemic TNF-a,reduced the TNF-a levels by two-fold
